Source: patent publication US12629419B2, “Prevention or mitigation of T-cell engaging agent-related adverse effects” (Hoffmann-La Roche Inc., priority 2020, dated 2026)

Tested on: CEA-TCB-induced cytokine release
Test: CEA-TCB-induced cytokine release (Luminex, supernatants)
Conditions: 10 nM CEA-TCB; escalating concentrations

For CCS(=O)(=O)N1CC(CC#N)(n2cc(-c3ncnc4[nH]ccc34)cn2)C1 [baricitinib, Baricitinib], the IL-2 was “did not reduce”.
